Screening data: PubChem, several laboratories
NRP1-CendR mod: modulators of CendR peptide binding to human neuropilin-1; inhibition, % at 25 µM; O14786; 360,000 tested, 0.85% active; FAM-RPARPAR peptide binding to NRP-1, fluorescence polarization;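 active = inhibition or corrected inhibition above about 18%, plus a signal ratio from 0.5 to 1.5, limit read from the data, passing the limit was not always enough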
UUG fidelity: yeast start codon fidelity modulation; activity score, % at 18.7 µM; actives 0.13% (n = 350,000); S. cerevisiae UUG-firefly luciferase reporter, luminescence/redox ratio; AID 602363;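 active means replicate mean at a twofold rise or more, about +100% in these data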;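 further: firefly luciferase made from a UUG start codon reports start codon fidelity; reporter light over untreated wells divided by growth signal over untreated wells; some hits fall short of that in this replicate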
ARFGAP1 inh: rat ARFGAP1 inhibition. Arfgap1-stimulated ARF1 GTP hydrolysis, GDP FP detection. 360,000 tested, 0.26% active. Q62848. inhibition, % at 16.5 µM;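 active = inhibition above a per-plate limit, mean inhibition of low control wells plus 3 SD, cut at about 25% in these data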;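 note: 0% = DMSO wells with enzyme and 100% = wells lacking Arfgap1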
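Material: truncated rat Arfgap1 GAP domain; Incubation: compound-enzyme preincubation 20 min, reaction 120 min, detection 60 min, 25 °C; Read-out: percent inhibition of Arfgap1-stimulated GTP hydrolysis; Technique: FP, GDP Alexa 633 tracer displaced from anti-GDP antibody, 620/688 nm; Controls: No-Arfgap1 wells (100%) versus DMSO full-reaction wells (0%); Replication: single well per compound.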
ASAP1 GAP inh: inhibitors of human ASAP1 ArfGAP activity | AID 624377 | inhibition, % at 16.5 µM | Q9ULH1 | 360,000 tested, 0.19% active | ASAP1-stimulated ARF1 GTP hydrolysis, GDP FP detection; in the data active = inhibition above about 25%;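 note: 0% = vehicle with enzyme and substrate and 100% = no enzyme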
MC4R ag barr: human MC4R agonism via beta-arrestin; AID 540308; P32245; U2OS MC4R beta-arrestin complementation, luminescence; percent of melanotan II response, DMSO zero; activation, % at 8.9 µM; 360,000 tested, 0.98% active;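 active = activation above a per-plate cutoff, the mean activation of sample wells on that plate plus 3 SD, cut at about 8% in these data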
MC4R antagonist: antagonists of human melanocortin 4 receptor (MC4R) | P32245 | MC4R-expressing cells, MTII-stimulated cAMP, LANCE TR-FRET | inhibition, % at 6.5 µM | AID 540295 | 360,000 tested, 0.48% active;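 active = inhibition above its plate's cutoff, the mean of tested wells on that plate plus 3 SD, cut at about 29% in these data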;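 note: 0% = Melanotan II alone and 100% = Melanotan II plus saturating MCL0020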
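Test system: U2OS cells stably expressing human melanocortin 4 receptor (MC4R); also added: Melanotan II challenge; compound: 6.5 µM single dose; timing: 30-min compound preincubation, 1-h Melanotan II challenge, 1-h detection, room temperature; signal: Eu-cAMP/anti-cAMP TR-FRET, emission 671 nm; repeats: one well per compound, no replicates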
cAMP nonselect: counter-screen for MC4R antagonists: nonselective cAMP signaling inhibitors; AID 602193; inhibition, % at 6.5 µM; 1,600 tested, 26% active; shares compounds with MC4R antagonist; parental U2OS, forskolin cAMP, LANCE TR-FRET;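 active = mean inhibition over triplicates above the low-control well mean plus 3 SD, set per campaign, cut at about 13% in these data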;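 note: signal is single emission at 671 nm which falls as cellular cAMP rises; 0% = forskolin-stimulated wells and 100% = buffer without forskolin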
MC4R cAMP antag: human MC4R cAMP antagonism confirmation; shares compounds with MC4R antagonist; MC4R-expressing cells, MTII-stimulated cAMP, TR-FRET; inhibition, % at 6.5 µM; 1,600 tested, 27% active; AID 602195; in the data active = inhibition above about 29%;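 note: 0% = agonist stimulated wells alone and 100% = agonist stimulated wells plus saturating reference antagonist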
Numbers without * were called inactive; nt = not tested or not shown. Sampled rows, rich in hits. Any-hit rate of the full collection: about 2.3%.

Results follow in this order: NRP1-CendR mod | UUG fidelity | ARFGAP1 inh | ASAP1 GAP inh | MC4R ag barr | MC4R antagonist | cAMP nonselect | MC4R cAMP antag
[1] Cc1onc(-c2c(F)cccc2Cl)c1C(=O)Nc1nnc(C(F)(F)F)s1
  3.4 | -20.8 | 2.7 | 11.2 | -4.0 | 47.5* | 36.4* | 74.0*
[2] C[C@@H]1CN([C@H](C)CO)S(=O)(=O)c2ccc(C#Cc3ccc(F)cc3)cc2O[C@@H]1CN(C)S(=O)(=O)c1ccc(F)cc1
  nt | -25.8 | nt | nt | nt | nt | nt | nt
[3] COc1ccc(Oc2c(Cl)cnn(-c3ccc(Cl)c(Cl)c3)c2=O)cc1
  -0.8 | nt | 0.7 | -0.4 | 1.3 | 23.3 | nt | nt
[4] COc1c(Cl)cnn(-c2ccc(C)cc2)c1=O
  0.3 | -19.1 | 0.9 | 12.1 | -0.9 | 34.1* | 11.5 | 12.6
[5] COc1cnn(-c2ccc(F)cc2)c(=O)c1Br
  8.4 | nt | 11.9 | 5.9 | -2.6 | 10.0 | nt | nt
[6] COc1ccc(Oc2c(Cl)cnn(-c3ccc(C)cc3)c2=O)cc1
  -0.9 | nt | 4.0 | -14.2 | -3.1 | 59.5* | 36.4* | 82.5*
[7] COc1ccc(Oc2c(Cl)cnn(-c3ccc(F)cc3)c2=O)cc1
  3.7 | -12.0 | -10.2 | -11.2 | -2.6 | 57.6* | 40.3* | 72.6*
[8] COc1ccc(CN2CC(C(=O)NCCCN3CCN(Cc4ccccc4)CC3)CC2=O)cc1 (centres undefined)
  11.0 | nt | nt | nt | -0.9 | 9.5 | nt | nt
[9] COc1ccc(CN2CC(C(=O)NCCCN3CCCC(C)C3)CC2=O)cc1 (centres undefined)
  2.4 | -18.1 | -2.8 | -0.9 | 0.1 | 33.7* | -1.4 | -4.1
[10] CN(C)CCNc1cnn(-c2ccccc2)c(=O)c1Cl
  7.3 | nt | -5.8 | 4.9 | 3.5 | 29.0* | -1.7 | -17.4
[11] CNc1cnn(-c2ccccc2)c(=O)c1Cl
  6.8 | 29.4 | 4.5 | 3.7 | -0.5 | 2.6 | nt | nt
[12] CCc1ccccc1N(CC(=O)NCc1ccco1)C(=O)CCC(=O)Nc1ccccn1
  2.6 | -13.4 | -0.8 | 2.5 | 4.1 | 30.9* | -1.7 | -12.2
[13] CC(C)NC(=O)Nc1ccc2c(c1)C(=O)N([C@@H](C)CO)C[C@H](C)[C@H](CN(C)Cc1ccncc1)O2
  nt | -5.0 | nt | nt | nt | nt | nt | nt
[14] COc1ccc(S(=O)(=O)N(C)C[C@H]2Oc3ccc(NC(=O)Cc4ccccc4)cc3CC(=O)N([C@H](C)CO)C[C@@H]2C)cc1
  nt | 4.4 | nt | nt | nt | nt | nt | nt
[15] Cc1ccc(NC(=O)COC(=O)c2cccc3c2C(=O)c2ccccc2C3=O)c(C)c1
  14.8 | -17.5 | -3.8 | -3.3 | -2.1 | 10.4 | nt | nt
[16] Cc1ccc(C)c(NC(=O)COC(=O)c2cccc3c2C(=O)c2ccccc2C3=O)c1
  -7.8 | -6.9 | 3.6 | -5.2 | -1.0 | 33.2* | 0.0 | 25.2
[17] CCOC(=O)COc1ccc2ccccc2c1/C=C/[N+](=O)[O-]
  -6.3 | nt | -9.0 | -10.4 | -1.4 | 11.8 | nt | nt
[18] CCOc1ccc(/C=C/[N+](=O)[O-])c2ccccc12
  -5.0 | -25.9 | nt | nt | -5.0 | 41.4* | 11.9 | -19.7
[19] CCN(C(=O)CSc1nc2n[nH]c(C)c2c(=N)n1-c1ccc(Cl)c(C)c1)c1cccc(C)c1
  -1.1 | -16.0 | 4.7 | 8.7 | 4.0 | 21.1 | nt | nt
[20] CCC(Sc1nc2n[nH]c(C)c2c(=N)n1-c1ccc(C)c(Cl)c1)C(=O)N1CCOCC1 (centres undefined)
  -0.8 | -12.6 | nt | nt | 0.0 | 29.4* | 6.5 | 34.6*

Profiles, looked up by structure. Order of values: NRP1-CendR mod	UUG fidelity	ARFGAP1 inh	ASAP1 GAP inh	MC4R ag barr	MC4R antagonist	cAMP nonselect	MC4R cAMP antag
CCOC(=O)COc1ccc2ccccc2c1/C=C/[N+](=O)[O-] in the list: -6.3	nt	-9.0	-10.4	-1.4	11.8	nt	nt
CC(C)NC(=O)Nc1ccc2c(c1)C(=O)N([C@@H](C)CO)C[C@H](C)[C@H](CN(C)Cc1ccncc1)O2 in the list: nt	-5.0	nt	nt	nt	nt	nt	nt
CCC(Sc1nc2n[nH]c(C)c2c(=N)n1-c1ccc(C)c(Cl)c1)C(=O)N1CCOCC1 (centres undefined) in the list: -0.8	-12.6	nt	nt	0.0	29.4*	6.5	34.6*

Additional compounds follow:
Results follow in this order: NRP1-CendR mod | UUG fidelity | ARFGAP1 inh | ASAP1 GAP inh | MC4R ag barr | MC4R antagonist | cAMP nonselect | MC4R cAMP antag
[21] C[C@@H]1CN([C@@H](C)CO)C(=O)c2cccc(NC(=O)c3ccncc3)c2O[C@@H]1CN(C)S(=O)(=O)c1ccc(Cl)cc1
  nt | -1.5 | nt | nt | nt | nt | nt | nt
[22] COc1ccc(OC)c2c1C(=O)c1ccccc1C2=O
  nt | nt | -18.8 | -13.1 | nt | nt | nt | nt
[23] COc1ccc(OC)c2c1C(=O)C(Cl)=C(Cl)C2=O
  -14.8 | -37.7 | -2.5 | 5.2 | -2.3 | 32.0* | 72.7* | 48.7*
[24] COc1ccc(N(C(=O)c2ccco2)C(C(=O)NC2CCCCC2)c2cccs2)cc1OC (centres undefined)
  17.9 | nt | -8.7 | -8.3 | -3.2 | 12.2 | nt | nt
[25] C#CC(=O)N(c1cc(OC)ccc1OC)C(C(=O)NC1CCCC1)c1cccs1 (centres undefined)
  7.1 | -4.2 | nt | nt | 15.8* | 33.3* | -33.8 | 22.3
[26] C#CC(=O)N(c1ccc(OC)cc1OC)C(C(=O)NC1CCCC1)c1cccs1 (centres undefined)
  -8.7 | nt | 4.2 | 7.4 | 9.0* | 42.8* | -38.0 | 41.7*
[27] COc1ccc(N(C(=O)c2snc(C(N)=O)c2N)C(C(=O)NC2CCCC2)c2cccs2)cc1OC (centres undefined)
  -27.8 | nt | -6.2 | 4.1 | -0.4 | -1.1 | nt | nt
[28] COc1ccc(C(CNC(=O)c2cc(F)c(F)c(F)c2F)N2CCOCC2)cc1 (centres undefined)
  -3.5 | nt | 0.3 | 5.7 | -1.9 | 31.2* | 18.7* | 36.0*
[29] COC(=O)c1ccc(NC(=O)c2ccc(NS(=O)(=O)c3cccc4cccnc34)cc2)cc1
  -6.0 | -9.2 | nt | nt | 2.4 | 29.7* | -0.7 | 2.5
[30] CN(C)CC(=O)N[C@@H]1CC[C@H](CCNC(=O)C2CCCCC2)O[C@@H]1CO
  nt | 7.3 | nt | nt | nt | nt | nt | nt
[31] CCN1CCN(C(=O)/C(C#N)=C/c2ccc(OC(F)F)cc2)CC1
  4.2 | -9.8 | -12.4 | -3.0 | 2.6 | -6.0 | nt | nt
[32] N#C/C(=C\c1ccc(OC(F)F)cc1)C(=O)N1CCCCC1
  -0.2 | 5.3 | 0.5 | -5.3 | -0.4 | 31.7* | -4.2 | -5.6
[33] CO[C@@H]1CN(C)C(=O)c2ccc(NC(=O)C3CCCC3)cc2OC[C@@H](C)N(CCC(F)(F)F)C[C@@H]1C
  nt | 3.7 | nt | nt | nt | nt | nt | nt
[34] CC(=O)N1CCN(c2cc(-c3ccccc3)nc3cc(-c4cccc(Cl)c4)nn23)CC1
  -6.7 | -7.0 | 0.7 | 7.9 | 4.7 | 40.9* | 0.5 | 8.3
[35] COc1ccc(-c2cc3nc(-c4ccccc4)cc(N4CCN(C(=O)c5ccoc5)CC4)n3n2)cc1
  -12.9 | 0.1 | 10.8 | -8.1 | 1.6 | 5.6 | nt | nt
[36] Cc1cc(NS(=O)(=O)c2ccc(NC(=O)c3oc4ccccc4c3C)cc2)no1
  3.4 | -7.3 | -1.1 | 17.4 | 0.7 | 29.0* | -0.3 | -2.2
[37] CCCc1nc(SCC(=O)Nc2nc3c(s2)CCCC3)c2ccccc2n1
  1.9 | -10.9 | 1.3 | 16.4 | 2.2 | 35.6* | 10.7 | 27.0
[38] CCc1nc(SCC(=O)Nc2nc3c(s2)CCCC3)c2ccccc2n1
  -8.0 | -7.6 | -4.0 | 0.5 | 1.8 | 32.6* | 17.2* | 46.6*
[39] CN(C)C(=O)c1cccc(-c2ccc3c(c2)[C@H]2[C@H](CCN2C(=O)c2ccncc2)[C@H](CO)N3C)c1
  nt | -4.0 | nt | nt | nt | nt | nt | nt
[40] C[C@@H]1CN([C@H](C)CO)C(=O)Cc2cc(NC(=O)Nc3ccccc3)ccc2O[C@H]1CN(C)C(=O)Nc1cccc2ccccc12
  nt | -0.6 | nt | nt | nt | nt | nt | nt
